This passage reports inhibition results from PubChem BioAssay AID624167 (Sanford-Burnham Center for Chemical Genomics, 2012).

By UniProt entry, the sequences of proteins in these tests, tags left out.
UniProt Q6IN02, whole entry, looked up: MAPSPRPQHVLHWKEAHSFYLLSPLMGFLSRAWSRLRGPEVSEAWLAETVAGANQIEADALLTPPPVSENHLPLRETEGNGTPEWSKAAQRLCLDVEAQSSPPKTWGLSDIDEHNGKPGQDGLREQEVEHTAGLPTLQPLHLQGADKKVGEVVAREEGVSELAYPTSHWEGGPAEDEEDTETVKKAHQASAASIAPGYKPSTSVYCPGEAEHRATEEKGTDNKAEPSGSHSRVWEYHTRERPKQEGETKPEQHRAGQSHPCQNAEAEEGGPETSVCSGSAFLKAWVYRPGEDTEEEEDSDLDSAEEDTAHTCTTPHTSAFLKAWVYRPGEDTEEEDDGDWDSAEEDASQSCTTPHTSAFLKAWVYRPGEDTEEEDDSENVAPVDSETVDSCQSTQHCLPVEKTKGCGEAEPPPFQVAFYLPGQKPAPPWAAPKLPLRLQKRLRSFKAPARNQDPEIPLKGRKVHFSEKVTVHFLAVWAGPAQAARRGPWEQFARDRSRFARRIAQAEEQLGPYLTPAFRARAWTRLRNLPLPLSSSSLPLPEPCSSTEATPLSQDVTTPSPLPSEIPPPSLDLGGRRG

In this experiment the target is PEG-3 (UniProt Q6IN02). Kind of experiment: inhibition of PEG-3 promoter-driven reporter – cell-based, HeLa, luciferase, CREF/GAPDH counter-screen panel, dose response (AID 624167). As to conditions: HeLa PEG-Prom luciferase reporter, overnight, CREF/GAPDH counter-screens; run 2, dose range 1, at 100 µM (top of the series). Background: Counterscreens check selectivity or assay interference.

Structures are written as SMILES. This is a selection; strong and weak results do not stand in their true shares.

Usually inhibition stands for the relative decrease from the control value, in per cent. A low value points to a response near the control. In the case of `CCCCn1nnnc1C(c1cccs1)N1CCC(n2c(=O)[nH]c3ccccc32)CC1` (configuration not stated), the inhibition was determined as 93.9%.
Molecule `O=c1[nH]c2ccccc2n1C1CCN(C(c2cccc3ccccc23)c2nnnn2C2CCCC2)CC1` (configuration not stated) showed an inhibition of 36.6%.
